Laboratory results from patent US20260384424A1, “HETEROCYCLIC COMPOUND” (published 2026).

Chains of the proteins cited; added tags and fusions are not shown.
UniProt O75116, whole entry: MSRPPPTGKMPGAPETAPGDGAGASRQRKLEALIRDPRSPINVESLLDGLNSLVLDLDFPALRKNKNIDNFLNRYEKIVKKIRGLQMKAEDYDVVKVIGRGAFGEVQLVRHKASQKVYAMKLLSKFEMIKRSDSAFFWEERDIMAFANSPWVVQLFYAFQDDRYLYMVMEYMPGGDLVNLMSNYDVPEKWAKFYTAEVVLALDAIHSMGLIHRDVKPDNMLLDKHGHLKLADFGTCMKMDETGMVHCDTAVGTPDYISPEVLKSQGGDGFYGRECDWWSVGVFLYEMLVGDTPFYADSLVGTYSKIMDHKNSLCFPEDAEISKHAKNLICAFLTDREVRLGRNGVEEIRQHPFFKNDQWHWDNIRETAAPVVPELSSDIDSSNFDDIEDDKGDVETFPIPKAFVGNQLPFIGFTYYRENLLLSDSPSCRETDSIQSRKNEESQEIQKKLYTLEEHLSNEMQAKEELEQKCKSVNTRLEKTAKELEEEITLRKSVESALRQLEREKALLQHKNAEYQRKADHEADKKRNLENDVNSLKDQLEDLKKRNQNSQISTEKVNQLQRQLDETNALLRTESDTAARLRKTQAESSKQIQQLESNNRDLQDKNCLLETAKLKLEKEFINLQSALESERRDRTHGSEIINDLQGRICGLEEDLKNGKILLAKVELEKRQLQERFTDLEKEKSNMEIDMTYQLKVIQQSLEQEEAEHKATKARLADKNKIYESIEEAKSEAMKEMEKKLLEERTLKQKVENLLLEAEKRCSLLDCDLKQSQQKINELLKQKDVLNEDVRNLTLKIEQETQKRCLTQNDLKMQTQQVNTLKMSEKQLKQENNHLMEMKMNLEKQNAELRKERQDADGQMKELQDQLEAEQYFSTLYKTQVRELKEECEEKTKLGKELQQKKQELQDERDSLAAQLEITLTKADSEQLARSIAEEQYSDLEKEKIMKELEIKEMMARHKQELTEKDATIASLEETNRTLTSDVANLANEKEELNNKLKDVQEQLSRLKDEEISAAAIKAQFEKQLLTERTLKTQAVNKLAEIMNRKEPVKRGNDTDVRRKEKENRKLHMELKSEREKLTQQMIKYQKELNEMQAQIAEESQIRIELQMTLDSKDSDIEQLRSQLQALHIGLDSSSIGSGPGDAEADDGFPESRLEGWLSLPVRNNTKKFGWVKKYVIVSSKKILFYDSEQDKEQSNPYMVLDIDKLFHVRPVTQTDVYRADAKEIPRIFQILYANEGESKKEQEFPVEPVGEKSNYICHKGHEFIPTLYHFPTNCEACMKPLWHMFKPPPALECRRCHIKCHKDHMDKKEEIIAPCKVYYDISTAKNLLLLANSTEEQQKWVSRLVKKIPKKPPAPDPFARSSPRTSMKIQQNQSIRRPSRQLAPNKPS

Biological target: ROCK2 protein (Homo sapiens, UniProt O75116)
Assay: Degradation inducing activity of ROCK2 protein in HUVEC cells, Western Blotting
Details: 24 hours
Description: In vitro degradation inducing activity of ROCK2 protein of compounds of Examples was evaluated by Western Blotting (WB).
By a test compound, 10 mM DMSO solution was prepared, which was used as a 10 μM test compound solution. Further, the solution was diluted 10-fold with DMSO to prepare a 1 mM solution, which was used as a 1 μM test compound solution.
HUVEC cells (ATCC: CRL-1730, Lot: 70041472) were cultured in F-12K medium supplemented with 10% FBS, 0.1 mg/mL heparin, 30 mg/mL Endothelial Cell Growth Supplement (ECGS, Corning), and 1% Penicillin/Streptomycin. The HUVEC cells seeded in a 24 well plate at 50,000 cells/well/i mL were cultured for 24 hours, and then 1 μL of DMSO or a test compound solution was added thereto and treatment was performed for 24 hours. Cells were harvested and lysed for 20 minutes on ice using lysis buffer (Cell Signaling Technology, Cat #9803) supplemented with protease inhibitor cocktail (Sigma, Cat #P8340; Roche, Cat #P11873580001), and phosphatase inhibitor cocktail (Sigma, Cat #P5726, P0044). The lysate was sonicated (15 seconds, amplitude 30%, 1 cycle) and then centrifuged at 12500 rpm for 15 minutes at 4 °C. The protein concentration was determined by BCA assay kit (Thermo Fisher Scientific, Cat #23225).
The western blotting was performed using Simple Western JESS (protein simple). A cell lysis sample (protein amount; about 1.06 μg) was loaded on a plate of Simple Western JESS, and the expression level of ROCK2 protein was detected using a 12-230 kDa Wes Separation Module (Protein simple, Cat #SM-W004), an Anti-Rabbit Detection Module for Wes (Protein simple, Cat #DM-001), and a Total Protein Detection Module for Wes (Protein simple, Cat #DM-TP01). As the primary antibody, a material obtained by diluting ROCK2 (D1B1) Rabbit mAb (Cell Signaling Technology, Cat #9029) at 1:10 was used, and as the secondary antibody, a material obtained by diluting HRP-labeled anti-rabbit IgG antibody (Cell Signaling Technology, Cat #7074S) at 1:100 was used. The expression level of the target protein was standardized using the total protein amount loaded as a reference. The standardized expression level data of the control (DMSO) was taken as 100%, and the degradation rate (%) was calculated from the average standardized expression level data of the test compound. All analysis steps, such as data detection and analysis, are fully automated.
With respect to the ROCK2 protein degradation rate of the test compound, the protein degradation rates (%) at the evaluation concentrations were set to A≥75%, 75%>B≥50%, 50%>C≥25%, and D<25%, and are shown in Table 7.

Compound	ROCK2 protein degradation rate (at 1 μm)	ROCK2 protein degradation rate (at 10 μm)
COC[C@H]1CN[C@H](C)CN1CC(=O)N1CC(C)(C)c2ncc(Cc3cccc(OCCOCCOCCOCCN[C@H](C)c4ccc(C(=O)Nc5ccncc5)cc4)c3)cc21	D (D<25%)	B (75%>B≥50%)
C[C@@H]1CN(CC(=O)N2CC(C)(C)c3ncc(Cc4ccc(F)cc4)cc32)[C@@H](CN(C)CCOCCOCCOCCOCCOCCOCCN[C@H](C)c2ccc(C(=O)Nc3ccncc3)cc2)CN1	B (75%>B≥50%)	A (A≥75%)
COC[C@H]1CN[C@H](C)CN1CC(=O)N1CC(C)(C)c2ncc(Cc3cccc(OCCOCCOCCOCCOCCOCCNC[C@@H](C(=O)Nc4ccc5cnccc5c4)c4ccccc4)c3)cc21	B (75%>B≥50%)	A (A≥75%)
(S)-1-((2R,5R)-1-(2-(6-(4-Fluorobenzyl)-3,3-dimethyl-2,3-dihydro-1H-pyrrolo[3,2-b]pyridin-1-yl)-2-oxoethyl)-5-methylpiperazin-2-yl)-N-(isoquinolin-6-yl)-2-methyl-19-phenyl-5,8,11,14-tetraoxa-2,17-diazaicosan-20-amide	A/A (A≥75%)	A/A (A≥75%)
C[C@@H]1CN(CC(=O)N2CC(C)(C)c3ncc(Cc4ccc(F)cc4)cc32)[C@@H](CN(C)CCOCCOCCOCCOCCOCCN[C@H](C)c2ccc(C(=O)Nc3ccncc3)cc2)CN1	C (50%>C≥25%)	D (D<25%)
COC[C@H]1CN[C@H](C)CN1CC(=O)N1CC(C)(C)c2ncc(Cc3ccccc3OCCOCCOCCOCCOCCOCCOCCN[C@H](Cc3cccc(F)c3)C(=O)Nc3ccc(-c4ccncc4)cc3)cc21	D (D<25%)	B (75%>B≥50%)
C[C@@H]1CN(CC(=O)N2CC(C)(C)c3ncc(Cc4ccc(F)cc4)cc32)[C@@H](CN(C)CCOCCOCCOCCOCCOCCOCCOCCN[C@H](C)c2ccc(C(=O)Nc3ccncc3)cc2)CN1	–	B (75%>B≥50%)
C[C@@H]1CN(CC(=O)N2CC(C)(C)c3ncc(Cc4ccc(F)cc4)cc32)[C@@H](CN(C)CCOCCOCCOCCOCCOCCOCCN[C@H](Cc2cccc(F)c2)C(=O)Nc2ccc(-c3ccncc3)cc2)CN1	D/D (D<25%)	D/D (D<25%)
COC[C@H]1CN[C@H](C)CN1CC(=O)N1CC(C)(C)c2ncc(Cc3cccc(OCCOCCN[C@H](Cc4cccc(F)c4)C(=O)Nc4ccc(-c5ccncc5)cc4)c3)cc21	C (50%>C≥25%)	A (A≥75%)
COC[C@H]1CN[C@H](C)CN1CC(=O)N1CC(C)(C)c2nc(CN(C)CCOCCOCCOCCOCCN[C@H](C)c3ccc(C(=O)Nc4ccncc4)cc3)c(Cc3ccc(F)cc3)cc21	A/A (A≥75%)	A/A (A≥75%)
COC[C@H]1CN[C@H](C)CN1CC(=O)N1CC(C)(C)c2ncc(Cc3cccc(OCCOCCOCCN[C@H](Cc4cccc(F)c4)C(=O)Nc4ccc(-c5ccncc5)cc4)c3)cc21	B (75%>B≥50%)	A (A≥75%)
COC[C@H]1CN[C@H](C)CN1CC(=O)N1CC(C)(C)c2nc(CN(C)CCOCCOCCN[C@H](Cc3cccc(F)c3)C(=O)Nc3ccc(-c4ccncc4)cc3)c(Cc3ccc(F)cc3)cc21	D/D (D<25%)	D/D (D<25%)
COC[C@H]1CN[C@H](C)CN1CC(=O)N1CC(C)(C)c2ncc(Cc3ccccc3OCCOCCOCCOCCOCCOCCN[C@H](C)c3ccc(C(=O)Nc4ccncc4)cc3)cc21	A (A≥75%)	B (75%>B≥50%)
COC[C@H]1CN[C@H](C)CN1CC(=O)N1CC(C)(C)c2nc(CN(C)CCOCCOCCOCCOCCOCCOCCN[C@H](C)c3ccc(C(=O)Nc4ccncc4)cc3)c(Cc3ccc(F)cc3)cc21	D/D (D<25%)	D/D (D<25%)
COC[C@H]1CN[C@H](C)CN1CC(=O)N1CC(C)(C)c2nc(CN(C)CCOCCN[C@H](Cc3cccc(F)c3)C(=O)Nc3ccc(-c4ccncc4)cc3)c(Cc3ccc(F)cc3)cc21	B (75%>B≥50%)	A (A≥75%)
COC[C@H]1CN[C@H](C)CN1CC(=O)N1CC(C)(C)c2ncc(Cc3ccccc3OCCOCCOCCOCCOCCN[C@H](C)c3ccc(C(=O)Nc4ccncc4)cc3)cc21	D (D<25%)	B (75%>B≥50%)
COC[C@H]1CN[C@H](C)CN1CC(=O)N1CC(C)(C)c2ncc(Cc3cccc(OCCOCCOCCOCCOCCOCCOCCN[C@H](Cc4cccc(F)c4)C(=O)Nc4ccc(-c5ccncc5)cc4)c3)cc21	D (D<25%)	B (75%>B≥50%)
COC[C@H]1CN[C@H](C)CN1CC(=O)N1CC(C)(C)c2ncc(Cc3ccccc3OCCOCCOCCOCCOCCOCCNC[C@@H](C(=O)Nc3ccc4cnccc4c3)c3ccccc3)cc21	C (50%>C≥25%)	A (A≥75%)
COC[C@H]1CN[C@H](C)CN1CC(=O)N1CC(C)(C)c2nc(CN(C)CCOCCOCCN[C@H](C)c3ccc(C(=O)Nc4ccncc4)cc3)c(Cc3ccc(F)cc3)cc21	A/A (A≥75%)	A/A (A≥75%)
COC[C@H]1CN[C@H](C)CN1CC(=O)N1CC(C)(C)c2nc(CN(C)CCOCCOCCNC[C@@H](C(=O)Nc3ccc4cnccc4c3)c3ccccc3)c(Cc3ccc(F)cc3)cc21	D (D<25%)	A (A≥75%)
COC[C@H]1CN[C@H](C)CN1CC(=O)N1CC(C)(C)c2ncc(Cc3ccccc3OCCOCCOCCOCCOCCOCCN[C@H](Cc3cccc(F)c3)C(=O)Nc3ccc(-c4ccncc4)cc3)cc21	D (D<25%)	B (75%>B≥50%)
COC[C@H]1CN[C@H](C)CN1CC(=O)N1CC(C)(C)c2nc(CN(C)CCOCCOCCOCCOCCOCCOCCOCCN[C@H](Cc3cccc(F)c3)C(=O)Nc3ccc(-c4ccncc4)cc3)c(Cc3ccc(F)cc3)cc21	B (75%>B≥50%)	A (A≥75%)
COC[C@H]1CN[C@H](C)CN1CC(=O)N1CC(C)(C)c2ncc(Cc3ccccc3OCCOCCOCCOCCOCCOCCOCCOCCN[C@H](C)c3ccc(C(=O)Nc4ccncc4)cc3)cc21	A/A (A≥75%)	A/A (A≥75%)
COC[C@H]1CN[C@H](C)CN1CC(=O)N1CC(C)(C)c2ncc(Cc3ccccc3OCCOCCOCCOCCN[C@H](Cc3cccc(F)c3)C(=O)Nc3ccc(-c4ccncc4)cc3)cc21	D (D<25%)	A (A≥75%)
C[C@@H]1CN(CC(=O)N2CC(C)(C)c3ncc(Cc4ccc(F)cc4)cc32)[C@@H](CN(C)CCOCCOCCOCCOCCOCCN[C@H](Cc2cccc(F)c2)C(=O)Nc2ccc(-c3ccncc3)cc2)CN1	D (D<25%)	C (50%>C≥25%)
COC[C@H]1CN[C@H](C)CN1CC(=O)N1CC(C)(C)c2ncc(Cc3cccc(OCCOCCNC[C@@H](C(=O)Nc4ccc5cnccc5c4)c4ccccc4)c3)cc21	C (50%>C≥25%)	A (A≥75%)
COC[C@H]1CN[C@H](C)CN1CC(=O)N1CC(C)(C)c2nc(CN(C)CCOCCOCCOCCOCCOCCOCCOCCNC[C@@H](C(=O)Nc3ccc4cnccc4c3)c3ccccc3)c(Cc3ccc(F)cc3)cc21	B (75%>B≥50%)	A (A≥75%)
COC[C@H]1CN[C@H](C)CN1CC(=O)N1CC(C)(C)c2ncc(Cc3ccccc3OCCOCCOCCN[C@H](Cc3cccc(F)c3)C(=O)Nc3ccc(-c4ccncc4)cc3)cc21	D (D<25%)	A (A≥75%)
